Our source for the IC50 values is patent publication US20230025880A1, “FUSED TRICYCLIC COMPOUND AND MEDICINAL USE THEREOF” (JAPAN TOBACCO INC., priority 2020, published 2023).

pIC50: −log10 of the molar value.

For the assay, the target named is human PDHK2 (hPDHK2) (Homo sapiens, UniProt Q15119). The experiment in a line: Inhibitory action of PDHK2 activity (residual PDH activity, NADH absorbance at 340 nm). The note with it: read-out: hPDHK2 IC50; PDH/hPDHK2 complex, PDHK reaction 45 min at room temperature. The protocol: In the case of human PDHK2 (hPDHK2, NCBI Reference Database Accession number NM_002611.4), modified hPDHK2 cDNA wherein FLAG-Tag sequence was added to the N terminus of hPDHK2 cDNA clone (pReceiver-M01/PDK2-GeneCopoeia) as the base was prepared by polymerase chain reaction (PCR) and ligated to the NdeI/EcoRI site of pET-17b vector (Merck KGaA, Catalog Number 69663-3). The recombinant construct was transformed into Escherichia coli DH5α. The recombinant clones were identified, and plasmid DNA was isolated and subjected to the DNA sequence analysis. One clone which had the expected nucleic acid sequence was selected for expression work.
For expression of hPDHK2 activity, Escherichia coli strain BL21(DE3) cells (Merck KGaA, Catalog Number 69450-4) were transformed with the pET17b vector containing modified hPDHK2 cDNA. The Escherichia coli were grown to an optical density 0.6 ([…]) at 30° C. Protein expression was induced by the addition of 500 μmol/L isopropyl-β-thiogalactopyranoside. The Escherichia coli were cultured at 20° C. for 17-18 hr and harvested by centrifugation. The harvested Escherichia coli was resuspended in a suspension buffer (20 mmol/L HEPES-NaOH, 500 mmol/L sodium chloride, 1% ethylene glycol, 0.1% Pluronic (registered trademark) F-68 (pH 8.0), cOmplete, EDTA-free (Roche) (pH 8.0)), and disrupted by a microfluidizer M-110H (MIZUHO INDUSTRIAL CO., LTD.). The precipitate was removed by centrifugation and the supernatant was added to DDDDK-tagged Protein PURIFICATION GEL (MEDICAL & BIOLOGICAL LABORATORIES CO., LTD., Code No. 3329). DDDDK-tagged Protein PURIFICATION GEL was washed with a washing buffer (20 mmol/L HEPES-NaOH, 500 mmol/L sodium chloride, 1% ethylene glycol, 0.1% Pluronic F-68 (pH 8.0)) and the bound protein was eluted with elution buffer 1 (20 mmol/L HEPES-NaOH, 100 μg/mL peptide (amino acid sequence DYKDDDDK) (SEQ ID NO: 1), 500 mmol/L sodium chloride, 1% ethylene glycol, 0.1% Pluronic F-68 (pH 8.0)). […]
As usually defined, the pIC50 is the IC50 on a negative log10 scale, so that one unit is a factor of ten. Regarding `C[C@H]1Cn2c(nnc2C2CCC(F)(F)CC2)-c2cnc([C@@](C)(O)C(F)(F)F)n21`, the pIC50 was 8.12.
Turning to `C[C@H]1Cn2c(nnc2C(F)(F)C(F)(F)F)-c2cnc([C@@](C)(O)C(F)(F)F)n21`, the negative logarithm of the IC50 (pIC50) is 7.70.
In the case of `C[C@H]1Cn2c(nnc2C(F)(F)c2ccc(F)cc2)-c2cnc([C@@](C)(O)C(F)(F)F)n21`, the pIC50 is 8.04.
